This passage reports pIC50 results from ChEMBL document CHEMBL3085673, “The design of a novel series of muscarinic receptor antagonists leading to AZD8683, a potential inhaled treatment for COPD” (Bioorg Med Chem Lett, 2013).

The chains behind the UniProt entries cited, without tags or fusion partners.
UniProt P20309, whole entry: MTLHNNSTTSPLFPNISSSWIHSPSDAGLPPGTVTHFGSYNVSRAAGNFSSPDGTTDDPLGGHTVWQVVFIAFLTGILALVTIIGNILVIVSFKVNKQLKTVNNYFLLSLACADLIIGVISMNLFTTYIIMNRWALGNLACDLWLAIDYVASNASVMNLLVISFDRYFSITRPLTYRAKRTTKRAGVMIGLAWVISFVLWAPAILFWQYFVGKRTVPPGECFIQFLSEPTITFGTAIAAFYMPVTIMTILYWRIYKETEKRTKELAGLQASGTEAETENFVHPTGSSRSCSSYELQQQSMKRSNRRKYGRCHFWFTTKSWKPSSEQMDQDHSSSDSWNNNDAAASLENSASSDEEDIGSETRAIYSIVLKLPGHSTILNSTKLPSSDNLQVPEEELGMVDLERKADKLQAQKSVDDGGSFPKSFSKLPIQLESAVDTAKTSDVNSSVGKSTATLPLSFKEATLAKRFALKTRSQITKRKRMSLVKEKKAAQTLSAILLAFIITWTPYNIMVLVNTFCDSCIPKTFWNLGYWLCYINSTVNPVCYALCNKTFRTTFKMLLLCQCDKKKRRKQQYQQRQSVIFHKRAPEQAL

The assay concerns the target Muscarinic acetylcholine receptor M3 (Homo sapiens, UniProt P20309). The assay can be described thus: Displacement of [3H]NMS from recombinant human M3 receptor expressed in CHO-K1 cells after 16 hrs by SPA method. (In general: In a radioligand displacement assay an active substance lowers the binding of a labelled ligand.)

Structures are written as SMILES.

One may read the pIC50 as the negative decadic logarithm of the IC50, by convention in mol/L. Turning to `O=C(O[C@H]1CN2CCC1CC2)C1(c2cccs2)CCCCCC1`, the negative-log IC50 (pIC50) amounted to 10.1.
